The entries are a selection whose mix differs from that of the whole data set. Calls of active or inactive are those of the source.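 The calls were made as follows: active = growth inhibition of the mutant yeast at or above 50%; inactive = the rest.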
Assay: growth inhibitors of tim23-1 mutant yeast, primary screen, luminescence, uHTS (AID 463212);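 also: temperature-sensitive mutant grown at 25 °C; plate controls were DMSO-treated mutant yeast for no effect and medium wells lacking yeast for full effect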
Conditions: S. cerevisiae tim23-1 growth, BacTiter-Glo luminescence, 24 h; at 20 µM; active compounds read high

Row | Structure (SMILES) | inhibition
1 | COc1ccc2nc(NP(=O)(c3ccccc3)c3ccccc3)sc2c1 | inactive: -44.1%
2 | COc1cc(I)ccc1[As](=O)(O)O | inactive: 10.4%
3 | O=C(OC1CN2CCC1CC2)C12CC3CC(CC(C3)C1)C2 (stereo unspecified) | inactive: 20.9%
4 | Cc1cc(=O)[nH]c(N[N+](=O)[O-])n1 | inactive: 1.07%
5 | Cc1c2c(nc3ccccc13)SC(C(Cl)Cl)C2 (stereo unspecified) | inactive: 33.6%
6 | COc1ccc(N/C(=N/P(=O)(N2CCOCC2)N2CCOCC2)N2CCOCC2)cc1 | inactive: 7.65%
7 | Cc1ccc2nc3c(c(C)c2c1)CC(C(Cl)Cl)S3 (stereo unspecified) | inactive: 32.3%
8 | Cc1ccc(OP(=O)(Nc2ccc([N+](=O)[O-])cn2)Oc2ccc(C)cc2)cc1 | inactive: 8.8%
9 | C[As](=O)(O)c1cccc(C(=O)O)c1 | inactive: 3.99%
10 | O=[As](O)(c1ccc(O)cc1)c1ccccc1O | inactive: -3.63%
11 | COc1cc(C(=O)NCC2(N3CCOCC3)CCCCC2)ccc1OCC(C)C | inactive: 8.97%
12 | CC(C)NC(=O)NP(=O)(Oc1ccccc1)Oc1ccccc1 | inactive: 9.21%
13 | O=C(OC1CN2CCC1CC2)c1cccc2[nH]cnc12 (stereo unspecified) | inactive: -9.05%
14 | CCN(CC)C(=S)SC(NC=O)C(Cl)(Cl)Cl (stereo unspecified) | inactive: 13.9%
15 | O=[N+]([O-])c1cc([N+](=O)[O-])c(-c2ccn[nH]2)s1 | inactive: 48.8%
16 | CC(C)c1ccc(OP(=O)(Nc2ccccn2)Oc2ccccc2F)cc1 (stereo unspecified) | inactive: 31.5%
17 | ClCCSc1nnc(-c2cccnc2)o1 | inactive: 27.3%
18 | CCCCOc1ccc(C(=O)NCC2(N3CCCCC3)CCCCC2)cc1OC | inactive: -2.02%
19 | Cc1cc(SC(NC(=O)c2ccccc2)C(Cl)(Cl)Cl)nc(C(C)C)n1 (stereo unspecified) | inactive: 44.9%
20 | CCOC(=O)Nc1ccc([As](=O)(O)O)c(O)c1 | inactive: -4.01%
21 | Cc1cc(SC(NC=O)C(Cl)(Cl)Cl)ncn1 (stereo unspecified) | inactive: 1.46%
22 | O=P(Nc1ccccn1)(c1cccc2ccccc12)c1cccc2ccccc12 | inactive: -34%
23 | CCOC(=O)Nc1cccc([As](=O)(O)O)c1 | inactive: 7.94%
24 | O=C(COc1ccccc1)OC1CN2CCC1CC2 (stereo unspecified) | inactive: -4.49%
25 | O=C(Nc1ccncc1[N+](=O)[O-])c1ccc([N+](=O)[O-])cc1[N+](=O)[O-] | inactive: 27.3%
26 | COP1(=S)c2c(C)nn(CCC#N)c2N=C(c2ccc(F)cc2)N1C (stereo unspecified) | inactive: 8.88%

Row | Structure (SMILES) | inhibition
27 | CCC(C)N(CC(C)C)C(=S)SC(NC(C)=O)C(Cl)(Cl)Cl (stereo unspecified) | inactive: 25%
28 | CCOC(=O)c1ccc(NC(=O)C(C)(CCl)SC)cc1 (stereo unspecified) | inactive: 20.2%
29 | O=C(OC1CN2CCC1CC2)c1cccc([N+](=O)[O-])c1 (stereo unspecified) | inactive: -189%
30 | Clc1n[nH]nc1-c1nn[nH][15n]1 | inactive: 4.24%
31 | CC(C)(C)C(=O)NC(Sc1ncccn1)C(Cl)(Cl)Cl (stereo unspecified) | inactive: 16.7%
32 | CCOP(=O)(Nc1ccc(C)cn1)OCC | inactive: -15%
33 | CN(CCCl)Cc1cc(Cl)c(NC2=NCCN2)c(Cl)c1 | inactive: -23.4%
34 | CCC1=CC2Cc3nc4ccc(Cl)cc4c(N)c3C(C1)C2 (stereo unspecified) | inactive: 6.91%
35 | O=P1(Nc2ccccn2)COc2ccccc2OC1 | inactive: 9.94%
36 | CCOP(=O)(NC(=NC(C)c1ccccc1)NC(C)c1ccccc1)OCC (stereo unspecified) | inactive: 26.6%
37 | O=[As](O)(c1ccccc1Br)c1ccccc1Br | inactive: -5.44%
38 | CC1(CBr)Cn2c(nc3ccccc3c2=O)S1 (stereo unspecified) | inactive: 1.19%
39 | CN(C(=O)Cc1ccc(Cl)c(Cl)c1)[C@@H]1CCCC[C@H]1N1CCCC1 | inactive: -6.08%
40 | CC(C)/C=N\N=C(\N)N[N+](=O)[O-] | inactive: -3.56%
41 | COc1ccccc1CNC(=O)COC(=O)C(O)(c1ccccc1)c1ccccc1 | inactive: 7.42%
42 | O=C(/C=C/c1ccccc1)OC1CN2CCC1CC2 (stereo unspecified) | inactive: 5.57%
43 | CN(C)C1(CNC(=O)c2ccc(S(C)(=O)=O)cc2)CCCCC1 | inactive: 3.95%
44 | Cc1nn(-c2ccccc2)c2c1P(=O)(N1CCOCC1)N(C)C(c1ccccc1)=N2 (stereo unspecified) | inactive: -3.17%
45 | Cc1ccc(C(=O)OC2CN3CCC2CC3)cc1 (stereo unspecified) | inactive: -16.6%
46 | CC1CCC(C(C)C)C(OP(=O)(Nc2ccccn2)c2ccccc2)C1 (stereo unspecified) | inactive: 38.4%
47 | O=[As](O)(c1cccs1)c1cccs1 | inactive: 9.65%
48 | Cc1ccc(OCC(=O)OC2CN3CCC2CC3)cc1 (stereo unspecified) | inactive: 0.493%
49 | NS(=O)(=O)c1cccc(NC(=O)COC(=O)C(O)(c2ccccc2)c2ccccc2)c1 | inactive: 7.66%
50 | O=P1(Nc2ccc(Br)cn2)COc2ccccc2OC1 | inactive: 13.4%
51 | Nc1cccc([As](=O)(O)c2ccccc2)c1 | inactive: -0.534%
52 | O=P1(Nc2ncccn2)COc2ccccc2OC1 | inactive: 23.4%

Row | Structure (SMILES) | inhibition
53 | O=C(O)COc1ccc([As](=O)(O)O)cc1[N+](=O)[O-] | inactive: 2.65%
54 | Nc1ccccc1[As](=O)(O)c1ccccc1 | inactive: 2.4%
55 | CS(=O)(=O)c1cc([N+](=O)[O-])c2no[n+]([O-])c2c1 | inactive: 23.3%
56 | CCOP1(=S)c2c(C)nn(CCC#N)c2N=C(c2ccccc2F)N1C (stereo unspecified) | inactive: 20.6%
57 | O=P(Nc1nccs1)(Oc1ccccc1)Oc1ccccc1 | inactive: 12.8%
58 | O=P(Nc1nccs1)(c1ccccc1)c1nc2ccccc2s1 (stereo unspecified) | inactive: 4.22%
59 | O=[N+]([O-])c1ccc2c(c1)nnn2O | inactive: 8.9%
60 | CN(C)C(=O)c1cc([N+](=O)[O-])cc2c1-c1c(cc([N+](=O)[O-])cc1[N+](=O)[O-])C2=O | inactive: 46.4%
61 | CN(C(=O)Cc1ccc(Cl)c(Cl)c1)[C@H]1CC[C@@]2(CCCO2)C[C@@H]1N1CCCC1 | inactive: 9.42%
62 | N#CCCN(C(=O)COC(=O)C(O)(c1ccccc1)c1ccccc1)c1ccc(F)cc1 | inactive: 23.3%
63 | CCOP1(=S)c2c(C)nn(CCC#N)c2N=C(c2ccc(F)cc2)N1C (stereo unspecified) | inactive: 6.91%
64 | CN(C(=O)Cc1ccccc1)[C@@H]1CC[C@]2(CCCO2)C[C@H]1N1CCCC1 | inactive: 14.9%
65 | NC(=O)Nc1ccc([As](=O)(O)O)cc1 | inactive: 9.21%
66 | Cc1cccc(OCC(=O)OC2CN3CCC2CC3)c1 (stereo unspecified) | inactive: -6.71%
67 | O=[As](O)(c1cccc(O)c1)c1cccc(O)c1 | inactive: -5.45%
68 | O=[As](O)(O)c1cccnc1 | inactive: 20.1%
69 | COc1cc(C(=O)NCC2(N3CCOCC3)CCCCC2)cc(Cl)c1OC(C)C | inactive: 21.4%
70 | CS(=O)(=O)c1ccc(Cl)c(NC(=O)COC(=O)C(O)(c2ccccc2)c2ccccc2)c1 | inactive: 18.1%
71 | O=C(OC1CN2CCC1CC2)c1ccc(Cl)cc1 (stereo unspecified) | inactive: -25.9%
72 | COc1cc(C2NCCC3(OCCO3)C2(C)C)cc(OC)c1OC (stereo unspecified) | inactive: 4.37%
73 | CCOP(=O)(Nc1cccc2ccccc12)OCC | inactive: -7.03%
74 | CCCOP(=S)(Nc1nc(N)cc(=O)[nH]1)OCCC | inactive: 5.52%
75 | Cc1ccc(NCCc2c([N+](=O)[O-])cc([N+](=O)[O-])cc2[N+](=O)[O-])cc1 | active: 79.9%
76 | CC(C)(C)C(=O)NC(Sc1ccccc1)C(Cl)(Cl)Cl (stereo unspecified) | inactive: 25%
77 | O=P1(Nc2nc3ccc(Cl)cc3s2)COc2ccccc2O1 (stereo unspecified) | inactive: 16.7%
78 | CCOc1ccc(C2=NCC(CBr)S2)cc1 (stereo unspecified) | inactive: 20.4%

Row | Structure (SMILES) | inhibition
79 | CC(=O)Nc1ccc([As](=O)(O)O)c(O)c1 | inactive: -1.89%
80 | CC(=O)Nc1ccc(Oc2c([N+](=O)[O-])cc([N+](=O)[O-])cc2[N+](=O)[O-])cc1 | inactive: 10.2%
81 | CC(=O)c1ccc(N2CC2c2ccncc2)cc1 (stereo unspecified) | inactive: -3.18%
82 | Cc1ccccc1CN(C)C(=O)COC(=O)C(O)(c1ccccc1)c1ccccc1 | inactive: 32.9%
83 | C[C@H]1OP(=O)(Oc2ccccc2)C[C@@H]2O[C@@H]21 (stereo partly specified) | inactive: 15.2%
84 | C[C@@H]1C=CCP(=O)(Oc2ccccc2)O1 (stereo partly specified) | inactive: -8.96%
85 | O=C(NC1CCS(=O)(=O)C1)NP(=S)(Oc1ccccc1)Oc1ccccc1 (stereo unspecified) | inactive: -1.27%
86 | CCNC(=S)/N=C(\N)N[N+](=O)[O-] | inactive: -9.52%
87 | c1ccc(-c2nn[nH]n2)c(-c2nn[nH]n2)c1 | inactive: 2.03%
88 | CCOC(=O)NC(Sc1ccccc1)C(Cl)(Cl)Cl (stereo unspecified) | inactive: 6.41%
89 | Cc1ccc(NP(=O)(Oc2cccc(C)c2)Oc2cccc(C)c2)nc1 | inactive: -13.4%
90 | CC(NC(=O)COC(=O)C(O)(c1ccccc1)c1ccccc1)c1ccccc1 (stereo unspecified) | inactive: 25.4%
91 | Cc1ccccc1OP(=O)(Nc1ccccn1)Oc1ccccc1C | inactive: 39.8%
92 | CN(C)C(=O)Oc1noc2ccccc12 | inactive: 3.04%
93 | COC(=O)c1cc2c(s1)N=C(c1ccccc1)N(C)P2(=O)N1CCOCC1 (stereo unspecified) | inactive: 9.73%
94 | Cc1ccc(OP(=O)(Nc2ccccn2)Oc2ccc(C)cc2)cc1 | inactive: -208%
95 | CC(=O)NC(SC(=S)N(CC(C)C)CC(C)C)C(Cl)(Cl)Cl (stereo unspecified) | inactive: 46.8%
96 | O=C(OC1CN2CCC1CC2)c1ccccc1 (stereo unspecified) | inactive: 3.05%
97 | CCC(=O)N1C2C3N(C(=O)CC)C1C1N(C(=O)CC)C(C(N1C(=O)CC)N3C(=O)CC)N2C(=O)CC | inactive: 16%
98 | O=P(Nc1nc2ccccc2s1)(c1ccccc1)c1ccccc1 | inactive: 10.4%
99 | C[C@H]1OP(=O)(Oc2ccccc2)[C@H](O)[C@H](O)[C@H]1N=[N+]=[N-] (stereo partly specified) | inactive: 7.76%
100 | CN(C)C1(CNC(=O)c2ccc(Cl)c(S(N)(=O)=O)c2)CCCCC1 | inactive: -10.8%
101 | O=P(Nc1ccccn1)(c1ccc(Br)cc1)c1ccc(Br)cc1 | inactive: 22%

Reference: PubChem BioAssay AID463212 (Sanford-Burnham Center for Chemical Genomics, 2010)
